The target of this assay is Sodium-dependent dopamine transporter (Rattus norvegicus, UniProt P23977). It counts as functional, tissue-based, Striatum.

The chains behind the UniProt entries cited, without tags or fusion partners.
UniProt P23977, whole entry: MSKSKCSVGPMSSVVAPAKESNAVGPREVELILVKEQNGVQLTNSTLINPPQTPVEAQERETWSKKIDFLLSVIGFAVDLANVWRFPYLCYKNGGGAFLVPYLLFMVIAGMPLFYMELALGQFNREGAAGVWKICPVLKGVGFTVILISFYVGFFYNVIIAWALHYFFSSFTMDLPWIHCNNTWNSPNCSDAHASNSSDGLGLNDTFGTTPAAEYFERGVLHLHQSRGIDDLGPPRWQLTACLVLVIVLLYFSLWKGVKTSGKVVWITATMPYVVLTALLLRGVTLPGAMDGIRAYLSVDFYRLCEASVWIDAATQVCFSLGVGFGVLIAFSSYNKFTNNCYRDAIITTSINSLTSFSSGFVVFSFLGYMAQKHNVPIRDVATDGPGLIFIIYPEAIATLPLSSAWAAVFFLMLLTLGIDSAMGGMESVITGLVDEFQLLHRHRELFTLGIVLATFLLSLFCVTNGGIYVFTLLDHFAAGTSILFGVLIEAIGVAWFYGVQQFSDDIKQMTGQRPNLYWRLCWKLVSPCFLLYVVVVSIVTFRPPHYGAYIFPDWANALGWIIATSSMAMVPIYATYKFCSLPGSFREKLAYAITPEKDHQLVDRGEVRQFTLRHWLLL

Usually IC50 stands for the concentration needed to halve the response being measured. In turn, `CN(C)CCCN1c2ccccc2CCc2ccccc21` [IMIPRAMINE] had an IC50 of 20 µM.

These data come from ChEMBL document CHEMBL1122801, “Nontricyclic antidepressant agents derived from cis- and trans-1-amino-4-aryltetralins” (J Med Chem, 1984).
